{
  "source": "patent US20240018153A1",
  "about": "“BENZENESULFONAMIDE DERIVATIVES AND USES THEREOF” (2692372 ONTARIO, INC., priority 2020, published 2024)",
  "target": "EGFR (Homo sapiens (Human), UniProt P00533)",
  "assay": "HTRF KinEASE-TK kinase assay, EGFR",
  "type": "biochemical",
  "method": "Kinase activity was monitored using a HTRF® KinEASE-TK kit from Cisbio (62TK0PEC). The buffer used was 1× kinase buffer supplemented with 2 mM MnCl2, 5 mM MgCl2, 1 mM TCEP and 100× diluted Supplementary Enzyme Buffer. EGFR was purchased from Promega. […] Reaction with substrate was then initiated by adding biotinylated substrate and ATP. […] After 60 min of incubation, the fluorescence emission was measured at 620 nm and 665 nm. The ratio of Em 665 nm to Em 620 nm was proportional to the amount of substrate phosphorylated by the kinase.\nFor initial screening, enzymes were pre incubated with compounds at 2 different concentrations (1 and 10 uM final) and 0.5% DMSO.",
  "data": [
    {"molecule": "COc1c(F)c(F)c(F)c(F)c1S(=O)(=O)n1nc(-c2ccc(Oc3ccccc3)cc2)c2c(N)ncnc21", "note": "[Compound I-23, 3-(4-phenoxyphenyl)-1-((2,3,4,5-tetrafluoro-6-methoxyphenyl)sulfonyl)-1H-pyrazolo[3,4-d]pyrimidin-4-amine]", "values": [
      {"measurement": "remaining activity at 1 µM", "setting": "read-out: % EGFR Remaining activity vs DMSO (1 μM, 3 h)", "result": "50 to 90", "unit": "%"},
      {"measurement": "remaining activity at 10 µM", "setting": "read-out: % EGFR Remaining activity vs DMSO (10 μM, 3 h)", "result": "< 50", "unit": "%"}
    ]}
  ]
}
